# Antibody variant affinities, Ab-14 light chain, assay 1

Binding partner: SARS-CoV-2 spike HR2 peptide, sequence PDVDLGDISGINAS.

Parent scFv Ab-14: VH joined to VL by a (GGGGS)3 linker. Changes lie in the light chain CDRs alone.
VH: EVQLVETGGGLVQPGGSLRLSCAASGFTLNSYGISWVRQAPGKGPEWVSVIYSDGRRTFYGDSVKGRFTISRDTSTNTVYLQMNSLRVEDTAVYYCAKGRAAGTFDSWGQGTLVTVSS
VL: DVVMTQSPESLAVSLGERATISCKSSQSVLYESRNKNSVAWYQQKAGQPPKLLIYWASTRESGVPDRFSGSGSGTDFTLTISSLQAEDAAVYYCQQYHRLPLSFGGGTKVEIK

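The parent was found by panning a naive human phage display library on the peptide. Library AAYL50 holds single substitutions and randomly drawn double and triple substitutions in the CDRs. The scFvs were displayed on barcoded MATa yeast, the peptide on MATalpha yeast. After mating in shaken culture at 30 °C for 16 h, diploids were selected and their barcode pairs sequenced. Each replicate has its own calibration line, from reference interactions of the BCL2 family. Each pool was mated in three replicate cultures.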

Variants are written as CDR1, CDR2 and CDR3 of the light chain (limits as in the source). Parent: KSSQSVLYESRNKNSVA, WASTRES, QQYHRLPLS. The read-out is the apparent dissociation constant on a log10 scale (nM): the lower, the stronger. Replicates are averaged; those with no signal do not enter the mean. "not detected" means that the variant was in the library but no mating with the target was seen in any replicate; the authors take this as a sign of poor binding, and no number exists. As a blank, each scFv also met three strains without target: over library AAYL50, 18% of these pairings were detected, typically at 4.19 and seldom below 2.99.

CDR-L1	CDR-L2	CDR-L3	mean log10 Kd (nM)	detected
KSSQSVLYESKNKNSVA	WASTAES	QQYHRLPES	3.01	3 of 3
KSSQSGLYESRNKNSVC	WASTRES	QQYHRLGLS	not detected	0 of 3
KSSQSVGYESRNKNSVV	WAITRES	QQYHRLPLS	not detected	0 of 3
TSSQSVLYESRNKRSVA	WASTRES	YQYHRLPLS	not detected	0 of 3
KSSQSGLYESRNKNSVA	WASCRES	MQYHRLPLS	1.75	3 of 3
KSSQSVLYESRNKCSVR	WALTRES	QQYHRLPLS	2.71	1 of 3
VSVQSVLYESRNKNSVG	WASTRES	QQYHRLPLS	not detected	0 of 3
KNSQSVLYESRVKNSIA	WASTRES	QQYHRLPLS	2.30	3 of 3
KIRQSVLYESRNKNSVA	WASTRES	QQYHKLPLS	0.15	3 of 3
KSSQSVLYESLNKNSVA	NASTRES	QQYHRLPLF	0.40	3 of 3
KSSQSVAYESREKNSVA	WASTRES	QQYLRLPLS	1.46	3 of 3
KSSQSVLYESYNKNSVA	WASNPES	QQYHRLPLS	2.93	3 of 3
KSSQSVLYEGDNKNSVA	WASTWES	QQYHRLPLS	5.02	2 of 3
KSSQSVLYESRNKNSVA	WASTRAP	QQYHPLPLS	3.34	3 of 3
KSSQSVLYESRNKNSVA	WAPTREN	QQEHRLPLS	4.94	2 of 3
KSSQSVLYISRNKNSVA	WASTFES	QQYFRLPLS	5.02	1 of 3
KSSQSVIYESRNKNSVA	WASTRES	QQYHRVWLS	3.00	3 of 3
KSSQSVGYESRNPNSVA	WASTRES	QQYHRLDLS	not detected	0 of 3
KSSNSVLYESRNKNSVA	WASTRES	QQYKREPLS	not detected	0 of 3
KSSQSVLYESRNKNSVD	WASTRES	TQYHRLALS	3.50	1 of 3
KSSQSVLPESRNKNSVA	WASTRES	QVYHRLPLC	5.08	2 of 3
KSSQSVLYESRNKNSVA	WASGREV	QQYHRLTLS	2.34	2 of 3
KASQSVLCESRNKNSVA	WASTRES	QQYHRLTLS	4.33	1 of 3
KSSQSVLYNSRNKISVA	WASTRLS	QQYHRLPLS	3.15	2 of 3
KSSPSVLYESRNKNSVW	WASTRES	QQYHRLPLS	0.44	3 of 3
KSSQSVLYDSRNKNSVA	WASIRES	QQYHRLPLK	0.58	3 of 3
KSSQSVLYESRNKNSVA	AASTRES	HQYHRCPLS	4.77	2 of 3
KRSQSVLYESMNKNSVA	WSSTRES	QQYHRLPLS	2.91	1 of 3
KSSQSVLYESTLKQSVA	WASTRES	QQYHRLPLS	not detected	0 of 3
KSSLSVLYESRNKNSVA	WASTRES	QQSHRLPLS	2.18	3 of 3
PSSQTVLYESRNKNSVA	WASTRES	QQYHRLPLH	not detected	0 of 3
KSSQSVLYESRNKNSVC	WASTYRS	QQYHRLPLS	not detected	0 of 3
KSSQSVLYESRNKNSVA	WLSTREC	LQYHRLPLS	3.27	1 of 3
KSSQSVLYESDNKNSVA	WASTRES	QQYHRYPLK	3.79	1 of 3
LISQSKLYESRNKNSVA	WASTRES	QQYHRLPLS	0.81	3 of 3
KSSCSVLHMSRNKNSVA	WASTRES	QQYHRLPLS	2.11	2 of 3
KSSQSVLYESRNKNSVA	WMSTREM	QQYHRLPLS	not detected	0 of 3
KSSQSVLYESRNKNFVA	WASTRES	QWYHRLPSS	4.88	1 of 3
KSSQSVTYESRNKNSVA	WASTRES	NWYHRLPLS	2.24	3 of 3

Second part, the sequence after the result:

mean log10 Kd (nM)	detected	CDR-L1	CDR-L2	CDR-L3
0.76	3 of 3	KSSQSVAYESRNKNSVA	WASRRES	QQYMRLPLS
not detected	0 of 3	KSSQSVLYESRNRNLVA	WASTRES	QSYHRLPLS
2.35	3 of 3	KSQQSVLAESRNKNSVA	WMSTRES	QQYHRLPLS
not detected	0 of 3	KSSQSVLYESRNKNSVA	CASGRES	QQYHRCPLS
not detected	0 of 3	KSSQSVLYESRNKNSVS	WWSTRES	QQYTRLPLS
1.10	3 of 3	KSSVSVLLHSRNKNSVA	WASTRES	QQYHRLPLS
1.40	3 of 3	KSLQSVLYEARNKNSVA	WASTRES	QQYHRLPLS
3.19	2 of 3	KSSQSVLYECDNKNSVA	WACTRES	QQYHRLPLS
2.74	3 of 3	KSSQSVLIESRNKNSVA	WASTHES	QQYHRDPLS
0.66	3 of 3	KMIQSVLYEGRNKNSVA	WASTRES	QQYHRLPLS
not detected	0 of 3	KSSQSVLYESRNKNSVN	KASERES	QQYHRLPLS
3.58	3 of 3	KSSQSVVYESFNKNSVA	WASTRES	QQYHRMPLS
not detected	0 of 3	KSSQSVLYESRNKNSVA	WASLREC	VQYHRLPLS
5.09	1 of 3	KSSQSRLYESRNKNSVC	WASTYES	QQYHRLPLS
not detected	0 of 3	KSSQSVLYESRLKNSVA	WASARES	QQYHRLNLS
1.89	3 of 3	KSSQSVLYESHNYNRVA	WASTRES	QQYHRLPLS
not detected	0 of 3	KSSQRVLYESRLKNSVA	WASTRES	QQNHRLPLS
4.79	3 of 3	KSSQSVWYENRNKNSVA	VASTRES	QQYHRLPLS
not detected	0 of 3	KSSQSVLYESRNKNSVA	WASTRFS	QQDHRLPCS
not detected	0 of 3	KSVQMVLYESRNKNSVA	WASDRES	QQYHRLPLS
5.38	1 of 3	KSSQSVLYESRNKNSVA	WASTRES	QGYHRLWLE
4.55	2 of 3	KSSQSVLYESRNKNSVK	WASTRES	QVYHTLPLS
2.47	1 of 3	YSSQFVLYESRNKNSVA	WASTRES	QQYMRLPLS
5.57	2 of 3	KASQSVLYESRNKNSVG	WASTRES	QQYHRLPLV
4.50	3 of 3	KSSQSVLYESRNKNSVS	WASTREQ	QQYHRLCLS
2.17	3 of 3	KSSQSVLYLSRSKNSVA	WASTREV	QQYHRLPLS
0.48	3 of 3	KSSQGVLYESRNKNNVA	WASTRES	QQYHRLPFS
1.42	3 of 3	KGSQSVLYESRNMNSVA	WASTRRS	QQYHRLPLS
1.62	3 of 3	KSSCSVLYESRNKNSVA	WASYRES	QQYHRLPNS
not detected	0 of 3	ESSQSVLYENRNKNSVA	WASTRES	QQGHRLPLS
5.08	1 of 3	KSSQSVLYESRRKNSVA	WASNCES	QQYHRLPLS
not detected	0 of 3	KSSQSVLYDSRNKNSVA	WASTRES	QQVWRLPLS
not detected	0 of 3	KSSQSVLYESRWKNSVA	WASTRES	LQMHRLPLS
1.98	3 of 3	KSSQSVLYEARNHNSVA	WAYTRES	QQYHRLPLS
2.02	3 of 3	KYSQSVLYESRWKNSVA	WASTRES	QQYHRLPLS
4.36	1 of 3	KSSQSVLYENRNKNSVP	WASTRES	QQYHRLCLS
not detected	0 of 3	KCSQSVLYESRNKNSVA	CASTRES	QQYHRMPLS
4.77	2 of 3	KSFQSVLYESRNKNSVA	WASTRES	QQDHRLPWS
3.45	2 of 3	KSSQRVLYESRNKSSVI	WASTRES	QQYHRLPLS

Repeated from above, the 10 best binders with a signal in all replicates:

CDR-L1,CDR-L2,CDR-L3,mean log10 Kd (nM),detected
KIRQSVLYESRNKNSVA,WASTRES,QQYHKLPLS,0.15,3 of 3
KSSQSVLYESLNKNSVA,NASTRES,QQYHRLPLF,0.40,3 of 3
KSSPSVLYESRNKNSVW,WASTRES,QQYHRLPLS,0.44,3 of 3
KSSQGVLYESRNKNNVA,WASTRES,QQYHRLPFS,0.48,3 of 3
KSSQSVLYDSRNKNSVA,WASIRES,QQYHRLPLK,0.58,3 of 3
KMIQSVLYEGRNKNSVA,WASTRES,QQYHRLPLS,0.66,3 of 3
KSSQSVAYESRNKNSVA,WASRRES,QQYMRLPLS,0.76,3 of 3
LISQSKLYESRNKNSVA,WASTRES,QQYHRLPLS,0.81,3 of 3
KSSVSVLLHSRNKNSVA,WASTRES,QQYHRLPLS,1.10,3 of 3
KSLQSVLYEARNKNSVA,WASTRES,QQYHRLPLS,1.40,3 of 3

Parent in this assay: reference entry 0.65, copy in this library 1.68.

Source: Engelhart et al. 2022 (doi:10.1038/s41597-022-01779-4), MIT Lincoln Laboratory and A-Alpha Bio; data file from the FLAb repository.